Data reported in patent EP2272817A1, “PAI-1 INHIBITOR” (Institute of Medicinal Molecular Design, Inc., priority 2008, dated 2009).

Chains of the proteins cited; added tags and fusions are not shown. Residues count along the entry.
UniProt P05121, 24-402 limits assumed: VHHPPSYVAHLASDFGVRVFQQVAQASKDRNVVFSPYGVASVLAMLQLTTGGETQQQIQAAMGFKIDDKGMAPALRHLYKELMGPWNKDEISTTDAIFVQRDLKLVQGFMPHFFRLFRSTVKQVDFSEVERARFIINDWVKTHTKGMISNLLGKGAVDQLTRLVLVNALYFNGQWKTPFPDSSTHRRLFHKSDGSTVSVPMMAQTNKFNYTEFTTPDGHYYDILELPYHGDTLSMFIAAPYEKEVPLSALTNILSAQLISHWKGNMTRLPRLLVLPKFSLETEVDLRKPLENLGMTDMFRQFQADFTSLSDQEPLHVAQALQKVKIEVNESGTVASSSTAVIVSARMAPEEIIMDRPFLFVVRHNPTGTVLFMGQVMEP

Target: recombinant human PAI-1 (Homo sapiens, UniProt P05121)
Test: Test Example 2: Human PAI-1 Inhibitory Activity (pH 7.4 HEPES buffer, 10 minutes incubation with two-chain tPA)
Assay type: biochemical
Details: Compound Concentration 0.1µM; tested form: free acid

## CCC(CC)Oc1ccc(-c2ccc(OC(F)(F)F)cc2)cc1N(CCCc1ccccc1)C(=O)C(=O)O
  Inhibition Rate of PAI-1 Activity (%): 0%
